Test results: ChEMBL document CHEMBL5444388, “Affinity Phenotypic Cellular Literature for EUbOPEN Chemogenomic Library” (2024)

Protein sequences, listed by entry. Tags and fused reporters are not part of them. Residues count along the entry.
UniProt P15056, whole entry: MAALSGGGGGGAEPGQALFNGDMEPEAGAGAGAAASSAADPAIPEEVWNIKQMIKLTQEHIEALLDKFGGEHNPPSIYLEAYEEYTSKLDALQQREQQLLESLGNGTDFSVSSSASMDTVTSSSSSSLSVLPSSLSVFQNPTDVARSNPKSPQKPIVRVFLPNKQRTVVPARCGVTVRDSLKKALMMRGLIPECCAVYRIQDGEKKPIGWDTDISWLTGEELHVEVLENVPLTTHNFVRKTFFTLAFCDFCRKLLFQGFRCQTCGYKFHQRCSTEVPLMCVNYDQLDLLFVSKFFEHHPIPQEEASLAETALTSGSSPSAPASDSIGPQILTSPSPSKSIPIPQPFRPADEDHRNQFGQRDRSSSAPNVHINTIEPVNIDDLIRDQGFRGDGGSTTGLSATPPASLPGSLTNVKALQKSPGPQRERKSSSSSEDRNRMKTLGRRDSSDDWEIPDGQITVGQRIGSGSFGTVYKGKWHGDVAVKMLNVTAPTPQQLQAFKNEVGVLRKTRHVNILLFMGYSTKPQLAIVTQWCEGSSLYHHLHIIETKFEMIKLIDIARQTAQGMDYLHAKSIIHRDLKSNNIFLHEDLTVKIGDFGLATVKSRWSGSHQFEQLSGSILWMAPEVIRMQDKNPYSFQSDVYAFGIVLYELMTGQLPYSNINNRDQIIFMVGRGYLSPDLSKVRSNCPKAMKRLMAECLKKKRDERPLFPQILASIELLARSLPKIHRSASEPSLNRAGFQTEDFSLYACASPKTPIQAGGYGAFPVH
UniProt P15056, 2-766 V600E limits assumed: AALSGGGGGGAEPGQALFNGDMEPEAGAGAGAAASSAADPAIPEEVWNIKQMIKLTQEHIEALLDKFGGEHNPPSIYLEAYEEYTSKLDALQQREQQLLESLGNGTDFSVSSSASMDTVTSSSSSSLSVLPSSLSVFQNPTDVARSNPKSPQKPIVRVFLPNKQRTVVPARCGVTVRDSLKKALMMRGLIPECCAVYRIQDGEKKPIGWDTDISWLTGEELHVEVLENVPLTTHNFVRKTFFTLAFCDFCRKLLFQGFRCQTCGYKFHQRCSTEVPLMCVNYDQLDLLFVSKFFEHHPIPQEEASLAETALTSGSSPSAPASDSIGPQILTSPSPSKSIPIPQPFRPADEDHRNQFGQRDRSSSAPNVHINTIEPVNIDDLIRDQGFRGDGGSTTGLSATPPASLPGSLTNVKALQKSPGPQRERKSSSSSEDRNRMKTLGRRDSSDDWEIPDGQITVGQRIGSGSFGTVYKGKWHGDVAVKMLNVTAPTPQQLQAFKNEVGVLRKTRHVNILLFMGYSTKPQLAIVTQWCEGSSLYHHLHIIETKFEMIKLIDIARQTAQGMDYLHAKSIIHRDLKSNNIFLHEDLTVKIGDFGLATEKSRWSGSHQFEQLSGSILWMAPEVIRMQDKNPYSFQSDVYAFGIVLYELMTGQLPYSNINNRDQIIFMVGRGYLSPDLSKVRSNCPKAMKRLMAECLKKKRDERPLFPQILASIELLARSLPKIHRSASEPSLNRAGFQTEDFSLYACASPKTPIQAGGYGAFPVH

Legend:
[1] = target: T1, Serine/threonine-protein kinase B-raf (Homo sapiens, UniProt P15056)
[2] = target: T1, Serine/threonine-protein kinase B-raf; remark: listed apart in the source
[3] = target: T2, Serine/threonine-protein kinase B-raf (Homo sapiens, UniProt P15056, V600E)
[4] = target: T2, Serine/threonine-protein kinase B-raf; remark: listed apart in the source
[5] = target: T2, Serine/threonine-protein kinase B-raf; remark: listed apart in the source
[6] = target: T1, Serine/threonine-protein kinase B-raf; remark: listed apart in the source
[7] = target: T1, Serine/threonine-protein kinase B-raf; remark: listed apart in the source
[8] = target: T2, Serine/threonine-protein kinase B-raf; remark: listed apart in the source
[9] = target: T1, Serine/threonine-protein kinase B-raf; remark: listed apart in the source

With `CN(C)CCOc1ccc(-c2nc(-c3ccncc3)c(-c3ccc4c(c3)CC/C4=N\O)[nH]2)cc1` [SB590885] the IC50 [1] was 6100 nM, the IC50 [2] was 1100 nM and the IC50 [3] was 58 nM. For the same molecule, the IC50 [4] was 28 nM, the IC50 [5] was 58 nM and the IC50 [6] was 11000 nM. The IC50 [7] was 1500 nM, the IC50 [8] was 190 nM and the IC50 [9] was 5100 nM.
